This assay addresses Dipeptidyl peptidase 4 (Homo sapiens, UniProt P27487). As to conditions: 100 uM.

Protein sequences, listed by entry. Tags and fused reporters are not part of them.
UniProt P27487, whole entry, looked up: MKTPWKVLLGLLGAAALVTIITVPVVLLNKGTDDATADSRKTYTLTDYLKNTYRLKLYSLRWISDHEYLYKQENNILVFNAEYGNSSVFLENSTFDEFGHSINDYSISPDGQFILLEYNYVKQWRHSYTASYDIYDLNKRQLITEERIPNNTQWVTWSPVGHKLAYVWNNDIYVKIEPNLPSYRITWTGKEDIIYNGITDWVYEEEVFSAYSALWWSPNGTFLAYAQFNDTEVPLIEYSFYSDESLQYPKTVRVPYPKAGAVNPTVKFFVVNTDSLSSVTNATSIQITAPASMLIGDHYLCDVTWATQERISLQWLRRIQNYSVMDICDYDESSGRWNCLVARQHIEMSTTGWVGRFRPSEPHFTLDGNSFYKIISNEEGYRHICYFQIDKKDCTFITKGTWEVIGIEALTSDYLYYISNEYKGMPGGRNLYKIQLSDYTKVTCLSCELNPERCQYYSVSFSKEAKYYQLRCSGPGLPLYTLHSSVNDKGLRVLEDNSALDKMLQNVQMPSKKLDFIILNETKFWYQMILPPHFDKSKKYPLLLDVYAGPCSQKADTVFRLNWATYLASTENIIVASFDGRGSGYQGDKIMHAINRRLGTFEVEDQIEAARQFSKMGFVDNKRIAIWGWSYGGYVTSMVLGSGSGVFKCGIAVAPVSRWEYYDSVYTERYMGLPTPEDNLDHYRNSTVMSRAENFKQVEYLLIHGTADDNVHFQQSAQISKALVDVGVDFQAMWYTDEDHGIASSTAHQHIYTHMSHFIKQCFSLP

`Brc1nc2n(n1)CC(c1cc3ccccc3o1)=NN2` displayed an inhibition of 53%.

The term inhibition denotes the relative decrease from the control value, in per cent. A low value points to a response near the control.

The values are drawn from ChEMBL document CHEMBL4622831, “Anti-diabetic drugs recent approaches and advancements” (Bioorg Med Chem, 2020).
